{
  "source": "patent US7250408B2",
  "about": "“Glucocorticoid receptor antagonists for prophylaxis and therapy of glucocorticoid-mediated hypogonadism, of sexual dysfunction and/or infertility” (Bayer Schering Pharma AG, priority 2002, dated 2007)",
  "key": {"[1]": {"biological_target": "T1, Progesterone Receptor (Homo sapiens, UniProt P06401)", "T1 sequence (P06401 1-933)": "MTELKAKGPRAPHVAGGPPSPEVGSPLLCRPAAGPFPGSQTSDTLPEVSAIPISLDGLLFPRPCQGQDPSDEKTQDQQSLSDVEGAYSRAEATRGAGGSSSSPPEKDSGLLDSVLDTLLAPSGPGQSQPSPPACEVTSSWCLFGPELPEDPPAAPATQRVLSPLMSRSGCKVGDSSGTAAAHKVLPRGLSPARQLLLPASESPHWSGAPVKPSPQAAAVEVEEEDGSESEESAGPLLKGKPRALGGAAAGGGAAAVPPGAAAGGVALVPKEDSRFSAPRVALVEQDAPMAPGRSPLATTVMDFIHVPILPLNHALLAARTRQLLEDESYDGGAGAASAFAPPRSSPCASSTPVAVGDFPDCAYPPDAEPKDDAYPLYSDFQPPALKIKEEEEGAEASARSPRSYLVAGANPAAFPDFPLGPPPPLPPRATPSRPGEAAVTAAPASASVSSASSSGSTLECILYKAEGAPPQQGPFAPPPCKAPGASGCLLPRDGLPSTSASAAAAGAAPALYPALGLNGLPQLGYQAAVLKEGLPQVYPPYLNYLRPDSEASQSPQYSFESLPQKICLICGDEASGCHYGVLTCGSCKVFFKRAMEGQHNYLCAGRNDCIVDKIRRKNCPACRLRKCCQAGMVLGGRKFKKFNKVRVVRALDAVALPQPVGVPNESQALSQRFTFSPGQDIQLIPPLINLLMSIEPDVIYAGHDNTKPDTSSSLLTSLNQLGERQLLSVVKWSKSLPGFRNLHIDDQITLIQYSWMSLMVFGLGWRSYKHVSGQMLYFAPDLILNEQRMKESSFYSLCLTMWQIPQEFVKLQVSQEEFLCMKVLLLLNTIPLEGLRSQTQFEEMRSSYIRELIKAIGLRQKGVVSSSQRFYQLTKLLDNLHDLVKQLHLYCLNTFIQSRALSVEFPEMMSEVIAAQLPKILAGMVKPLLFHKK", "assay": "Progesterone receptor binding, relative binding affinity (RBA)", "conditions": "RBA relative to progesterone = 100"}, "[2]": {"biological_target": "T2, Glucocorticoid Receptor (Homo sapiens, UniProt P04150)", "T2 sequence (P04150 1-777)": "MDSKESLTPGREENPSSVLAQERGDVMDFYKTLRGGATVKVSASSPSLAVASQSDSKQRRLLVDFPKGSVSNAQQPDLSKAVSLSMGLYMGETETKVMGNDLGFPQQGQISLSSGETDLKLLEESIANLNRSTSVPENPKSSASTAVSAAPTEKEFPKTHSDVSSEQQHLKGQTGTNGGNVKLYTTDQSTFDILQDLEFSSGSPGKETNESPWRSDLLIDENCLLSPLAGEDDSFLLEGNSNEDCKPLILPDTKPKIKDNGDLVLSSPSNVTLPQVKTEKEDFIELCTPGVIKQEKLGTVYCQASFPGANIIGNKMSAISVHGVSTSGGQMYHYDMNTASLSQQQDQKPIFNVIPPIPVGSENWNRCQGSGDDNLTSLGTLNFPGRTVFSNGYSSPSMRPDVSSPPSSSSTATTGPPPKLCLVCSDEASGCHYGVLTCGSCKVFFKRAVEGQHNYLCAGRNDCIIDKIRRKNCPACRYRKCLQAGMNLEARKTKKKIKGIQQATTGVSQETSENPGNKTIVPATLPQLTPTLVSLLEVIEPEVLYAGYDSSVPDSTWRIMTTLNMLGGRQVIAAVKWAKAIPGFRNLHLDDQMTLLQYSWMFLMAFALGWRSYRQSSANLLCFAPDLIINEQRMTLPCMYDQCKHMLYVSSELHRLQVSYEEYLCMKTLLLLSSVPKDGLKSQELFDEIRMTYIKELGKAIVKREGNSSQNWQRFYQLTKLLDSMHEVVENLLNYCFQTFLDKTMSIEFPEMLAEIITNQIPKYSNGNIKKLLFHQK", "assay": "Glucocorticoid receptor binding, relative binding affinity (RBA)", "conditions": "RBA relative to dexamethasone = 100"}},
  "data": [
    {"molecule": "CC#C[C@]1(O)CC[C@H]2[C@@H]3CCC4=CC(=O)CCC4=C3[C@@H](c3ccc(N(C)C)cc3)C[C@@]21C", "note": "[RU 38486, 11β-(4-dimethylamino)phenyl-17β-hydroxy-17α-propyn-1-yl-estra-4,9-dien-3-one, reference compound]", "values": [
      {"measurement": "Relative Binding Affinity to Progesterone Receptor, %", "setting": "[1]", "result": 504, "unit": "%"},
      {"measurement": "Relative Binding Affinity to Glucocorticoid Receptor, %", "setting": "[2]", "result": 683, "unit": "%"}
    ]}
  ]
}
